Results from patent US6130250A, “Veterinary use of a pleuromutilin derivative” (priority 1996, dated 2000).
Values after ≈ are worked out from the molar mass of the structure shown.

Test system: mycoplasma isolates of chicken origin
Experiment: MIC, serial microdilution, mycoplasma isolates of chicken origin
Type: cell-based
Conditions: isolate 20008

## CC[C@H]1OC(=O)C[C@@H](O)[C@H](C)[C@@H](O[C@@H]2O[C@H](C)[C@@H](O[C@H]3C[C@@](C)(O)[C@@H](O)[C@H](C)O3)[C@H](N(C)C)[C@H]2O)[C@@H](CC=O)C[C@@H](C)C(=O)/C=C/C(C)=C/[C@@H]1CO[C@@H]1O[C@H](C)[C@@H](O)[C@@H](OC)[C@H]1OC [tylosin]
  MIC: 0.0625 µg/mL (≈ 0.0682 µM)
